Patent US20170247393A1, “Aminoisoxazoline Compounds as Agonists of Alpha7-Nicotinic Acetylcholine Receptors” (Forum Pharmaceuticals, Inc., priority 2015, published 2017)

The chains behind the UniProt entries cited, without tags or fusion partners. Residues count along the entry.
UniProt P36544, 23-502 limits assumed: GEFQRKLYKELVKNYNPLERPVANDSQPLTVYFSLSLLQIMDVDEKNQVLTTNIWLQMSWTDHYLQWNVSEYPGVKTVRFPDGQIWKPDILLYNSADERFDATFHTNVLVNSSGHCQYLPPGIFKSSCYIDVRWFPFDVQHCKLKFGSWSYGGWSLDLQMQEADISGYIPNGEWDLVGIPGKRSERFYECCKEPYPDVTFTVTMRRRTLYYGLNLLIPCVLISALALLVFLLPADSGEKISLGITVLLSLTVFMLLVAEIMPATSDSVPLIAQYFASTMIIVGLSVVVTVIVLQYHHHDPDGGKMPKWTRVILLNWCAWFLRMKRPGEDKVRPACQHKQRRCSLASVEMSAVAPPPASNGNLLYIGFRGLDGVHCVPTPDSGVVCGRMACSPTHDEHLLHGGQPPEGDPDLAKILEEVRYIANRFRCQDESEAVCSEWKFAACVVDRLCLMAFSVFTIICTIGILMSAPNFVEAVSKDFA

The compounds below were run against human α7 nAChR (Homo sapiens, UniProt P36544) (assay: Human α7 nAChR binding assay ([125I]-αBungarotoxin competition binding, Cerep)). Settings: read-out: h- α7 Ki; SH-SY5Y membranes expressing human α7 nAChR, 0.05 nM [125I]-αBgt, 120 min at 37° C.
With Cc1cc2cnc(NC3=NO[C@@]4(C3)CN3CCC4CC3)nc2o1 [(R)-75, (R)—N-(6-methylfuro[2,3-d]pyrimidin-2-yl)spiro[4H-isoxazole-5,3′-quinuclidine]-3-amine hydrochloride] the Ki was 570 nM. Clc1csc2cc(NC3=NO[C@@]4(C3)CN3CCC4CC3)ccc12 [(R)-76, (R)—N -(3-chlorobenzo[b]thiophen-6-yl)-4H-1′-azaspiro[isoxazole-5,3′-bicyclo[2.2.2]octan]-3-amine hydrochloride] gave a Ki of 73 nM. Compound Fc1c(Cl)sc2cc(NC3=NO[C@@]4(C3)CN3CCC4CC3)ccc12 [(R)-78, (R)—N-(2-chloro-3-fluorobenzo[b]thiophen-6-yl)-4H-1′-azaspiro[isoxazole-5,3′-bicyclo[2.2.2]octan]-3-amine hydrochloride] has a Ki of 270 nM. c1cnc2cc(NC3=NO[C@@]4(C3)CN3CCC4CC3)ccc2c1 [(R)-79, (R)—N-(quinolin-7-yl)-4H-1′-azaspiro[isoxazole-5,3′-bicyclo[2.2.2]octan]-3-amine hydrochloride] gave a Ki of 180 nM. Work on c1cnc2ccc(NC3=NO[C@@]4(C3)CN3CCC4CC3)cc2c1 [(R)-80, (R)—N-(quinolin-6-yl)-41-1-1^1-azaspiro[isoxazole-5,3′-bicyclo[2.2.2]octan]-3-amine hydrochloride] yielded a Ki of 180 nM. In the case of Fc1cc2cnc(NC3=NO[C@@]4(C3)CN3CCC4CC3)cc2cc1Cl [(R)-81, (R)—N-(6-chloro-7-fluoroisoquinolin-3-yl)-4H-1′-azaspiro[isoxazole-5,3^1-bicyclo[2.2.2]octan]-3-amine hydrochloride], the Ki is reported as 180 nM. For Fc1cc2cc(NC3=NO[C@@]4(C3)CN3CCC4CC3)ncc2cc1Cl [(R)-82, (R)—N-(7-chloro-6-fluoroisoquinolin-3-yl)-4H-1′-azaspiro[isoxazole-5,3′-bicyclo[2.2.2]octan]-3-amine hydrochloride], the Ki was 87 nM. FC(F)(F)c1ccc2cnc(NC3=NO[C@@]4(C3)CN3CCC4CC3)cc2c1 [(R)-83, (R)—N-(6-(trifluoromethypisoquinolin-3-yl)-4H-1′-azaspiro[isoxazole-5,3′-bicyclo[2.2.2]octan]-3-amine hydrochloride] gave a Ki of 230 nM. Cc1cn2ccc(NC3=NO[C@@]4(C3)CN3CCC4CC3)cc2n1 [(R)-96, (R)-N-(2-methylimidazo[1,2-a]pyridin-7-yl)-4H-1′-azaspiro[isoxazole-5,3′-bicyclo[2.2.2]octan]-3-amine hydrochloride] gave a Ki of 20000 nM. With Cc1cc2cnc(NC3=NO[C@@]4(C3)CN3CCC4CC3)cc2s1 [(R)-99, (R)-N-(2-methylthieno[3,2-c]pyridin-6-yl)spiro[4H-isoxazole-5,3′-quinuclidine]-3-amine hydrochloride] the Ki was over 30000 nM. Cc1cc2cnc(NC3=NO[C@@]4(C3)CN3CCC4CC3)cc2o1 [(R)-100, (R)-N-(2-methylfuro[3,2-c]pyridin-6-yl)spiro[4H-isoxazole-5,3′-quinuclidine]-3-amine hydrochloride] gave a Ki of over 30000 nM. With Clc1cccc2nc(NC3=NO[C@]4(C3)CN3CCC4CC3)sc12 [(S)-11, (S)—N-(7-chlorobenzo[d]thiazol-2-yl)-4H-1′-azaspiro[isoxazole-5,3′-bicyclo[2.2.2]octan]-3-amine] the Ki was 5400 nM. “N-(furo[3,2-c]pyridin-5-yl)-4H-1′-azaspiro[isoxazole-5,3′-bicyclo[2.2.2]octan]-3-amine-enantiomer1 hydrochloride” was tested, and the Ki was over 30000 nM. For “N-(furo[3,2-c]pyridin-5-yl)-4H-1′-azaspiro[isoxazole-5,3′-bicyclo[2.2.2]octan]-3-amine-enantiomer2 hydrochloride”, the Ki was over 30000 nM.

Counter-ions that a name gives are not always drawn.
